This series deals with OC[C@H]1O[C@@](CO)(O[C@H]2O[C@H](CO)[C@@H](O)[C@H](O)[C@H]2O)[C@@H](O)[C@@H]1O. Put plainly: purified protein. The settings on record: 100 mM acetate buffer, pH 4.5, 55 °C, 20 min, 1–20 mg/mL sucrose, printed μM conflicts with this substrate range (about 3–58 mM), unit probably mM.
Consider “rKcINU1 (recombinant exo-inulinase KcINU1) (Kluyveromyces marxianus; N385Q)”, for which the Km (in general, the concentration of substrate that gives half-maximal velocity) is 33.04 ± 4.11 µM; the Vmax (usually the rate approached at saturating substrate) was found to be 3270 µM/min/mg; the kcat (usually the number of substrate molecules converted per active site and unit of time at saturation) turned out to be 3300 s⁻¹; the kcat/Km (as a rule, the turnover number divided by the Michaelis constant) worked out at 1e+08 M⁻¹ s⁻¹.

In the case of “rKcINU1 (recombinant exo-inulinase KcINU1) (Kluyveromyces marxianus; N393Q)”, the Km amounted to 32.73 ± 4.99 µM, the Vmax stood at 1720 µM/min/mg, the kcat came to 1730 s⁻¹ and the kcat/Km came out at 5.3e+07 M⁻¹ s⁻¹.

With “rKcINU1 (recombinant exo-inulinase KcINU1) (Kluyveromyces marxianus; N422Q)”, the Km turned out to be 24.89 ± 1.07 µM, the Vmax was determined as 2340 µM/min/mg, the kcat turned out to be 2360 s⁻¹ and the kcat/Km amounted to 9.48e+07 M⁻¹ s⁻¹.

Regarding “rKcINU1 (recombinant exo-inulinase KcINU1) (Kluyveromyces marxianus; N490Q)”, the Km was 76.29 ± 16.21 µM, the Vmax was found to be 167 µM/min/mg, the kcat came out at 169 s⁻¹ and the kcat/Km stood at 2.21e+06 M⁻¹ s⁻¹.

For “rKcINU1 (recombinant exo-inulinase KcINU1) (Kluyveromyces marxianus; N549Q)”, the Km was 37.97 ± 3.4 µM, the Vmax was 3020 µM/min/mg, the kcat stood at 3050 s⁻¹ and the kcat/Km worked out at 8.04e+07 M⁻¹ s⁻¹.

Source of the values: PMC6844067.
